The test system of data set [1] is WiDr. As to the kind of experiment: Cytotoxicity in WiDr cells expressing surface-tethered carboxypeptidase G2 (CPG2).
Data set [2] has as its system WiDr. Description: Cytotoxicity in WiDr cells expressing beta-galactosidase control. In kind it is functional, cell-based, Homo sapiens. In short, it runs like this:
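WiDr cells stably expressing surface-tethered CPG2 (stCPG2(Q)3) or β-galactosidase control; 2 × 10⁶ cells seeded, confluent after 48 h. Compound in DMSO stock diluted in medium, re-added at similar concentration after 1 h, further 20 h exposure. Cells reseeded in quadruplicate at ~2 × 10³/well, grown until controls confluent; SRB stain, 590 nm. IC50 from log dose-response sigmoid fit.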

Data set [3] in a line: Half-life period (prodrug) was determined. The class given is ADME. In short, it runs like this:
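Aqueous stability: 100 µM compound in CPG2 assay buffer (100 mM Tris-HCl pH 7.3, 260 µM ZnCl₂). Remaining parent measured by isocratic reverse-phase HPLC (10 mM ammonium acetate pH 5.0/methanol, UV 250 or 265-275 nm) at several times. Half-life from one-phase exponential decay fit. Labile compounds instead followed by absorbance change over 3 min; t½ = 0.69/rate constant.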

IC50 and T1/2 data for 14 compounds are collected here from ChEMBL document CHEMBL1136779 (J Med Chem, 2003).

As to `Nc1ccc(N(CCBr)CCBr)cc1`, the IC50 – broadly, the concentration that inhibits the measured activity by half – in the data set on WiDr [1] amounted to 7.7 µM; with WiDr [2], 9.4 µM.
Take `Br.CNc1ccc(N(CCI)CCI)cc1`: the T1/2 in data set [3] amounted to 0.6 min.
Consider `Br.Nc1ccccc1N(CCCl)CCCl`, for which the T1/2 in data set [3] turned out to be 12.3 min.
Still for that read-out and setting: as for `Br.Nc1ccccc1N(CCI)CCI`, the figure is 0.5 min.
`Nc1ccccc1N(CCCl)CCCl`: the IC50 came out at 2.4 µM in the data set on WiDr [1] and 3.5 µM in the data set with WiDr [2].
For `Nc1ccccc1N(CCI)CCI` the same measures were 8.6 µM and 10.2 µM.
For `Br.CNc1ccc(N(CCCl)CCCl)cc1`, in data set [3], the T1/2 worked out at 8.3 min.
Still for that read-out and setting: next, `Br.Nc1ccccc1N(CCBr)CCBr`: 1 min.
As for `Nc1ccccc1N(CCBr)CCBr`, the IC50 in the data set on WiDr [1] worked out at 18.6 µM; in the data set on WiDr [2] it was 23.4 µM.
As to `CNc1ccc(N(CCCl)CCCl)cc1`, the figures for the IC50 with WiDr [1] and in the data set with WiDr [2] were 8.2 µM and 9.2 µM, respectively.
Regarding `Br.Nc1ccc(N(CCBr)CCBr)cc1`, in data set [3], the T1/2 was found to be 2.3 min.
Still for that read-out and setting: next, `Br.CNc1ccc(N(CCBr)CCBr)cc1`: 2.7 min.
As for `CNc1ccc(N(CCBr)CCBr)cc1`, the half-inhibitory concentration (IC50) in the data set with WiDr [1] was 7.4 µM; in the data set with WiDr [2], 7.2 µM.
For the compound `CNc1ccc(N(CCI)CCI)cc1`, the IC50 was 8.4 µM in the data set with WiDr [1] and 7.7 µM in the data set on WiDr [2].
